Experimental data: patent US20030181447A1, “3-(Diarylmethylene)-8-azabicyclo[3.2.1]octane derivatives” (priority 2001, published 2003)

The chains behind the UniProt entries cited, without tags or fusion partners. Where a name states a change or a piece, a line headed by the entry shows the natural chain unless it says otherwise.
UniProt P33533, whole entry: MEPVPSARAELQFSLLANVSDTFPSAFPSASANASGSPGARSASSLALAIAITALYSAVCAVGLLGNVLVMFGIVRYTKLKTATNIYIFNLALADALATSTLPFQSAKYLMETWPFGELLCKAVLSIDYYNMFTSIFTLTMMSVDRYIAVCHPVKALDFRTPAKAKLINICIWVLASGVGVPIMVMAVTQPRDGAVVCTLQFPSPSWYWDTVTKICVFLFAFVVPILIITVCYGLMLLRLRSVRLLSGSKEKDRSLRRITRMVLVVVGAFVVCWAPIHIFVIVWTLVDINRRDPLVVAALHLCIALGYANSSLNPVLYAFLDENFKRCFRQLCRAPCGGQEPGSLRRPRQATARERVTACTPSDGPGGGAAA

Molecular target: δ-opioid receptor (Rattus norvegicus, UniProt P33533)
Experiment: biochemical
Conditions: δ Ki (nM), rat forebrain membrane preparation, [3H]DPDPE, 25° C.

Row | Compound | Ki [nM]
1 | CCN(CC)C(=O)c1ccc(C(=C2CC3CCC(C2)N3CCc2ccccc2)c2ccccc2)cc1 (single isomer, unassigned; (-)) [Example 23] | 0.23
2 | CCN(CC)C(=S)c1ccc(C(=C2CC3CCC(C2)N3CCc2ccccc2)c2ccccc2)cc1 (single isomer, unassigned; (-)) [Example 25] | 9.9
3 | CCN(CC)C(=O)c1ccc(C(=C2CC3CCC(C2)N3C)c2ccccc2)cc1.Cl [Example 1, N,N-Diethyl-4-[(8-methyl-8-azabicyclo[3.2.1]oct-3-ylidene)phenylmethyl]benzamide Hydrochloride [1:1]] | 1.2
4 | CCN(CC)C(=O)c1ccc(C(=C2CC3CCC(C2)N3)c2ccccc2)cc1.Cl [Example 2, N,N-Diethyl-4-[(8-azabicyclo[3.2.1]oct-3-ylidene)phenylmethyl]benzamide Hydrochloride [1:1]] | 0.1
5 | C=CCN1C2CCC1CC(=C(c1ccccc1)c1ccc(C(=O)N(CC)CC)cc1)C2 [Example 5, N,N-Diethyl-4-[(8-allyl-8-azabicyclo[3.2.1]oct-3-ylidene)phenylmethyl]benzamide Hydrochloride [1:1]] | 0.06
6 | CCN(CC)C(=O)c1ccc(C(=C2CC3CCC(C2)N3CCc2ccc(F)cc2)c2ccccc2)cc1 [Example 7] | 2.6
7 | CCN(CC)C(=O)c1ccc(C(=C2CC3CCC(C2)N3CCc2cccs2)c2ccccc2)cc1 [Example 8] | 13
8 | CCN(CC)C(=O)c1ccc(C(=C2CC3CCC(C2)N3CCc2c[nH]c3ccccc23)c2ccccc2)cc1 [Example 9] | 3.5
9 | CCN(CC)C(=O)c1ccc(C(=C2CC3CCC(C2)N3CCC2CCCCC2)c2ccccc2)cc1 [Example 10] | 1.4
10 | CCN(CC)C(=O)c1ccc(C(=C2CC3CCC(C2)N3CCn2nnn(CC)c2=O)c2ccccc2)cc1 [Example 12] | 18.5
11 | CCN(CC)C(=O)c1ccc(C(=C2CC3CCC(C2)N3CC(=O)c2ccccc2)c2ccccc2)cc1 [Example 13] | 6.3
12 | CCN(CC)C(=O)c1ccc(C(=C2CC3CCC(C2)N3CC(=O)c2ccc(OC)cc2)c2ccccc2)cc1 [Example 14] | 1.1
13 | CCN(CC)C(=O)c1ccc(C(=C2CC3CCC(C2)N3CC(=O)c2cccc(C#N)c2)c2ccccc2)cc1 [Example 15] | 6.8
14 | CCN(CC)C(=O)c1ccc(C(=C2CC3CCC(C2)N3CC(=O)c2ccc3c(c2)OCCCO3)c2ccccc2)cc1 [Example 17] | 0.23
15 | CCN(CC)C(=O)c1ccc(C(=C2CC3CCC(C2)N3CCc2ccccc2)c2ccccc2)cc1 [Example 19] | 0.7
16 | CCN(CC)C(=O)c1ccc(C(=C2CC3CCC(C2)N3Cc2ccc3c(c2)OCO3)c2ccccc2)cc1 [Example 20] | 0.01
17 | CN(C(=O)c1cccc(C(=C2CC3CCC(C2)N3C)c2ccccc2)c1)c1cccc(F)c1.O=C(O)/C=C/C(=O)O [Example 22, N-(3-Fluorophenyl)-N-methyl-3-[(8-methyl-8-azabicyclo[3.2.1]oct-3-ylidene)phenylmethyl]benzamide Fumarate [1:1]] | 92
18 | CCNC(=O)c1ccc(C(=C2CC3CCC(C2)N3CCc2ccccc2)c2ccccc2)cc1 [Example 26, N-Ethyl-4-[(8-phenethyl-8-azabicyclo[3.2.1]oct-3-ylidene)phenylmethyl]benzamide] | 7.5
19 | O=C(c1ccc(C(=C2CC3CCC(C2)N3CCc2ccccc2)c2ccccc2)cc1)N1CCCC1 [Example 33] | 24
20 | CC1CCCC(C)N1C(=O)c1ccc(C(=C2CC3CCC(C2)N3CCc2ccccc2)c2ccccc2)cc1 (stereo not shown) [Example 34] | 11
21 | CCCN(CCC)C(=O)c1ccc(C(=C2CC3CCC(C2)N3CCc2ccccc2)c2ccccc2)cc1 [Example 36] | 7.4
22 | O=C(Nc1nccs1)c1ccc(C(=C2CC3CCC(C2)N3CCc2ccccc2)c2ccccc2)cc1 [Example 39] | 49

Row | Compound | Ki [nM]
23 | O=C(NCc1nc2ccccc2[nH]1)c1ccc(C(=C2CC3CCC(C2)N3CCc2ccccc2)c2ccccc2)cc1 [Example 41] | 331
24 | O=C(NC1CC1)c1ccc(C(=C2CC3CCC(C2)N3CCc2ccccc2)c2ccccc2)cc1 [Example 45] | 19.8
25 | CCNC(=O)c1ccc(C(=C2CC3CCC(C2)N3CCc2ccc3c(c2)OCO3)c2ccccc2)cc1 [Example 48, N-Ethyl-[[8-(2-Benzo[1,3]dioxol-5-ylethyl)-8-azabicyclo[3:2:1]oct-3-ylidene]phenylmethyl]benzamide] | 48.2
26 | CCN(CC)C(=O)c1ccc(C(=C2CC3CCC(C2)N3CCc2ccc3c(c2)OCO3)c2ccccc2)cc1 [Example 49, N,N-Diethyl-[[8-(2-Benzo[1,3]dioxol-5-ylethyl)-8-azabicyclo[3:2:1]oct-3-ylidene]phenylmethyl]benzamide] | 4.96
27 | CCNC(=O)c1ccc(C(=C2CC3CCC(C2)N3C)c2ccccc2)cc1 [Example 50, N-Ethyl-4-[(8-Methyl-8-azabicyclo[3.2.1]oct-3-ylidene)phenylmethyl]benzamide] | 8.5
28 | CCNC(=O)c1ccc(C(=C2CC3CCC(C2)N3)c2ccccc2)cc1 [Example 51, N-Ethyl-4-[(8-azabicyclo[3.2.1]oct-3-ylidene)phenylmethyl]benzamide] | 5.7
29 | C=CCN1C2CCC1CC(=C(c1ccccc1)c1ccc(C(=O)NCC)cc1)C2 [Example 52, N-Ethyl-4-[(8-allyl-8-azabicyclo[3.2.1]oct-3-ylidene)phenylmethyl]benzamide] | 0.75
30 | CCN(CC)C(=O)c1ccc(C(=C2CC3CCC(C2)N3CCc2ccc(OC)cc2)c2ccccc2)cc1 [Example 53, N,N-Diethyl-4-[[8-[2-(4-methoxyphenyl)ethyl]-8-azabicyclo[3:2:1]oct-3-ylidene]phenylmethyl]benzamide] | 2.9
31 | COc1ccc(CCN2C3CCC2CC(=C(c2ccccc2)c2ccc(C(=O)N4CCOCC4)cc2)C3)cc1 [Example 54] | 57
32 | CCNC(=O)c1ccc(C(=C2CC3CCC(C2)N3CCc2ccc(OC)cc2)c2ccccc2)cc1 [Example 55] | 225
33 | COCCN(CCOC)C(=O)c1ccc(C(=C2CC3CCC(C2)N3CCc2ccc(OC)cc2)c2ccccc2)cc1 [Example 56] | 24
34 | COc1ccc(CCN2C3CCC2CC(=C(c2ccccc2)c2ccc(C(=O)N4CCCC4)cc2)C3)cc1 [Example 57] | 15
35 | COc1ccc(CCN2C3CCC2CC(=C(c2ccccc2)c2ccc(C(=O)N4C(C)CCCC4C)cc2)C3)cc1 (stereo not shown) [Example 58] | 18
36 | C=C(C)CN(CC)C(=O)c1ccc(C(=C2CC3CCC(C2)N3CCc2ccc(OC)cc2)c2ccccc2)cc1 [Example 59] | 3.9
37 | CCCN(CCC)C(=O)c1ccc(C(=C2CC3CCC(C2)N3CCc2ccc(OC)cc2)c2ccccc2)cc1 [Example 60] | 12
38 | COc1ccc(CCN2C3CCC2CC(=C(c2ccccc2)c2ccc(C(=O)N4C(C)(C)CCCC4(C)C)cc2)C3)cc1 [Example 61] | 15.5
39 | COc1ccc(CCN2C3CCC2CC(=C(c2ccccc2)c2ccc(C(=O)N(C(C)C)C(C)C)cc2)C3)cc1 [Example 62] | 30.7
40 | CCN(CC)C(=O)c1ccc(C(=C2CC3CCC(C2)N3CCc2ccc(OC)cc2)c2ccc(OC)cc2)cc1 [Example 67, N,N-Diethyl-4-[(4-methoxyphenyl)-[8-[2-(4-methoxyphenyl)ethyl]-8-azabicyclo[3:2:1]oct-3-ylidene]methyl]benzamide] | 24.7
41 | CCN(CC)C(=O)c1ccc(C(=C2CC3CCC(C2)N3CCc2ccc(O)cc2)c2ccc(O)cc2)cc1 [Example 68, N,N-Diethyl-4-[(4-hydroxyphenyl)-[8-[2-(4-hydroxyphenyl)ethyl]-8-azabicyclo[3:2:1]oct-3-ylidene]methyl]benzamide] | 0.41
42 | CCNC(=O)c1ccc(C(=C2CC3CCC(C2)N3CCc2ccc(O)cc2)c2ccccc2)cc1 [Example 69, N-Ethyl-4-[[8-[2-(4-hydroxyphenyl)ethyl]-8-azabicyclo[3:2:1]oct-3-ylidene]phenylmethyl]benzamide] | 1.08
43 | CCN(CC)C(=O)c1ccc(C(=C2CC3CCC(C2)N3CCc2ccc(O)cc2)c2ccccc2)cc1 [Example 70, N,N-Diethyl-4-[[8-[2-(4-hydroxyphenyl)ethyl]-8-azabicyclo[3:2:1]oct-3-ylidene]phenylmethyl]benzamide] | 0.7

Structures can show the parent of a compound that is named as a salt.
